## Measured melting point values of organic chemicals

Data: OPERA 2.9 data sets, kmansouri/OPERA on GitHub.

The melting point is given in degrees Celsius.
Cells with "–" have no entry in this list.
"via" names the databases from which the curators took the value.

| melting point (°C) | SMILES | name | via |
|---|---|---|---|
| 192.5 | O=C(O)C#Cc1ccc(Cl)cc1 | 2-(4-Chlorophenyl)-2-propynoic acid | PubChem |
| 247 | O=Cc1c(-c2ccccc2)n(-c2ccccc2)c2ccccc12 | 1H-Indole-3-carboxaldehyde, 1,2-diphenyl- | OCHEM |
| 184 | Cc1cccc(C)c1OP(=O)(Oc1ccc(-c2ccc(OP(=O)(Oc3c(C)cccc3C)Oc3c(C)cccc3C)cc2)cc1)Oc1c(C)cccc1C | – | eChemPortal |
| 134 | Cl.N=C(CCCl)NS(N)(=O)=O | – | eChemPortal |
| 106 | Cc1ccc(S(=O)(=O)C(C#N)c2nc3ccccc3nc2Cl)cc1 (stereo unspecified) | – | OCHEM |
| 122 | O=S1(=O)N=C(Cl)c2ccccc21 | Pseudosaccharin chloride | OCHEM |
| 123 | CC(C)(C)OC(=O)Nc1ccc(F)c(N)c1 | tert-Butyl (3-amino-4-fluorophenyl)carbamate | OCHEM |
| 212 | O=C(O)Cn1cccnc1=O | (2-oxopyrimidin-1(2H)-yl)acetic acid | OCHEM |
| 220 | Nc1ccc2c(c1)NC(=O)CS2 | 6-amino-2H-1,4-benzothiazin-3(4H)-one | OCHEM |
| 183 | OCc1ccc2ccccc2n1 | 2-Hydroxymethylquinoline | OCHEM |
| 184 | CC(C)(C)N(NC(=O)c1ccccc1)C(=O)c1ccccc1F | N'-Benzoyl-2-fluoro-N-(2-methyl-2-propanyl)benzohydrazide | OCHEM |
| 164 | O=C1C(=O)N(Cc2ccc(Cl)cc2)c2ccccc21 | 1-(4-Chlorobenzyl)-1H-indole-2,3-dione | OCHEM |
| 68 | O=C(O)C1(c2ccc(F)cc2)CCC1 | 1-(4-Fluorophenyl)cyclobutane-1-carboxylic acid | OCHEM |
| 142 | CC(C)c1cc(C(=O)O)c2ccccc2n1 | 2-isopropylquinoline-4-carboxylic acid | OCHEM |
| 183 | CCCC(=O)Nc1nc2ccc(N)cc2s1 | N-(6-amino-1,3-benzothiazol-2-yl)butanamide | OCHEM |
| 188 | COc1cccc(C(=O)N(NC(=O)c2ccccc2)C(C)(C)C)c1 | N'-Benzoyl-3-methoxy-N-(2-methyl-2-propanyl)benzohydrazide | OCHEM |
| 209 | O=C(Nc1ccccc1C(=O)O)c1ccc(Cl)cc1 | 2-[(4-chlorobenzoyl)amino]benzoic acid | OCHEM |
| 185.5 | Nc1ccc2ccccc2c1/N=N/c1ccc([N+](=O)[O-])cc1 | C.I. Solvent Red 5 | PubChem |
| 220 | COc1cc(OC)cc(C(=O)Nc2ccc(C(=O)O)c(O)c2)c1 | 4-[(3,5-dimethoxybenzoyl)amino]-2-hydroxybenzoic acid | OCHEM |
| 214 | O=Cc1c(Cl)nc2ccccn2c1=O | 4H-Pyrido(1,2-a)pyrimidine-3-carboxaldehyde, 2-chloro-4-oxo- | OCHEM |
| 65 | COc1ccc(/C=N\O)cc1 | [C(Z)]-4-Methoxybenzaldehyde oxime | OCHEM |
| 152 | O=C1/C(=C\c2ccccc2)SC(=S)N1/N=C/c1ccccc1O | 5-Benzylidene-3-salicylideneaminorhodanine | OCHEM |
| 35 | Cn1ccnc1C(=O)c1ccco1 | (Furan-2-yl)(1-methyl-1H-imidazol-2-yl)methanone | OCHEM |
| 138 | CCOS(=O)(=O)c1cc(C(C)(C)C)cc2cc(C(C)(C)C)ccc12 | Ethyl dibunate | OCHEM |
| 275 | O=C(O)c1ccc(NC(=O)C2CC2)cc1 | 4-[(cyclopropylcarbonyl)amino]benzoic acid | OCHEM |
| -51 | NCCO.O=C(O)NCCO | – | eChemPortal |
| 146 | Cc1nc2ccccc2n1N | 2-Methyl-1H-benzimidazol-1-amine | OCHEM |
| 307 | Cc1[nH]c(=O)[nH]c(=O)c1CCC(=O)O | – | OCHEM |
| 174 | C=CCOc1ccc(C(=O)O)cc1OC | 4-(allyloxy)-3-methoxybenzoic acid | OCHEM |
| 137 | Fc1cccc(-n2[nH]nnc2=S)c1 | 1-(3-fluorophenyl)-1H-tetrazole-5-thiol | OCHEM |
| 19.5 | COc1ccccc1CO | Benzenemethanol, 2-methoxy- | eChemPortal |
| 100 | CCc1ccccc1N1CC(C(=O)O)CC1=O (stereo unspecified) | 1-(2-ethylphenyl)-5-oxopyrrolidine-3-carboxylic acid | OCHEM |
| 128 | O=C(O)Cc1coc2cc(O)ccc12 | 2-(6-hydroxybenzofuran-3-yl)acetic Acid | OCHEM |
| 142 | NC(=O)C1COc2ccccc2O1 (stereo unspecified) | 2,3-dihydro-1,4-benzodioxine-2-carboxamide | OCHEM |
| 230 | Nc1nnc2ccccn12 | (1,2,4)Triazolo(4,3-a)pyridin-3(2H)-imine | OCHEM |
| 88 | ClCc1nc(-c2cccnc2)no1 | 3-[5-(Chloromethyl)-1,2,4-oxadiazol-3-yl]pyridine | OCHEM |
| 131 | O=C(O)CCCOc1ccc(Br)cc1 | 4-(4-bromophenoxy)butanoic acid | OCHEM |
| 124 | COc1c(OC)c(OC(C)=O)c2cc(C#N)ccc2c1OC(C)=O | 6-Cyano-2,3-dimethoxy-1,4-naphthalenediyl diacetate | OCHEM |
| 162 | NNc1nc(Cl)c(Cl)cc1Cl | 2,3,5-Trichloro-6-hydrazinylpyridine | OCHEM |
| 36.5 | Cc1c(F)ccc(C(=O)Cl)c1F | 2,4-Difluoro-3-methylbenzoyl chloride | OCHEM |

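The OPERA project collected these measurements from public sources as training and test data for property models. A listed value is a point estimate from one report or more. Method, purity and exact conditions of the single measurements are not given. The measured form (salt, isomer or mixture) is not always the one drawn. Some upstream entries may be estimates or bounds without being marked so.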